# Assay: Solubility in water, saturated suspension filtered and measured by HPLC
# Format: physicochemical
# Settings: shaken and sonicated about 5-10 min at about 50° C., filtered 0.2 μm
# Protocol: A compound was weighed and water was added to the compound such that the resulting concentration of the compound was about 100 mg/mL. The mixture was then shaken well and sonicated (about 5-10 min at about 50° C.). If the added amounts of the compound were totally solubilized, more amounts of the compound were added to the solution and the mixture was shaken well and sonicated until a suspension was achieved. The suspension was then filtered through a 0.2 μm filter. The filtered solution was diluted with DMSO. Then the mixture was analyzed by HPLC to determine the concentration of the compound.
# The HPLC system consisted of the HP 1100 Model (Agilent, Wilmington, Del.) equipped with a model 1100 quaternary pump, a model 1100 autosampler, a model 1100 Diode-Array Detector for UV detection at 280 nm. HPLC analysis was performed using a gradient mobile phase consisting of acetonitrile-water containing 0.1% formic acid. Mobile phases were degassed and filtered through a solvent filtration apparatus and pumped at a constant rate of 1.0 mL/min. Separation was made on an XTerra MS C18 analytical column, 4.6 mm i.d.×150 mm, (Waters Corp., Milford, Mass., USA) fitted with a pre-column filter (XTerra MS C18, 3.9 mm×20 mm). The column was maintained at 40° C.
substance,measurement,value
Calcium; 2-(N′-methyl-N′-thiobenzoyl-hydrazinocarbonyl)-1-(methyl-thiobenzoyl-hydrazono)-ethanolate [Compound 9],Solubility in water,18.9 mg/mL
